Test results taken from PubChem BioAssay (NCI).
The list shows a part of the results, in another mix than the full data. A structure can be active in one record and inactive in another. Some salts or complexes appear as unconnected parts, following the source record. Active and inactive are the calls of the source. Rule as the data show it: active = growth inhibition above about 70%; inactive = the rest.

How the values were obtained:
[1] = NCI Yeast Anticancer Drug Screen. Data for the rad50 strain (AID 155);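 also: 0% = growth of vehicle-only cultures of the same strain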; details: S. cerevisiae rad50 strain growth inhibition, hits give high values
[2] = NCI Yeast Anticancer Drug Screen. Data for the mec2-1 strain (AID 157); details: S. cerevisiae mec2-1 strain, hits give high values
[3] = NCI Yeast Anticancer Drug Screen. Data for the sgs1 mgt1 strain (AID 161);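 also: 0% = growth of cultures given vehicle only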; details: S. cerevisiae sgs1 mgt1 strain, hits give high values
[4] = NCI Yeast Anticancer Drug Screen. Data for the cln2 rad14 strain (AID 165);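 also: 0% = growth equal to vehicle treated cultures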; details: S. cerevisiae cln2 rad14 strain, hits give high values
[5] = NCI Yeast Anticancer Drug Screen. Data for the bub3 strain (AID 167); details: S. cerevisiae bub3 mutant strain, hits give high values
[6] = NCI Yeast Anticancer Drug Screen. Data for the mlh1 rad18 strain (AID 175); details: S. cerevisiae mlh1 rad18 strain growth inhibition, hits give high values
[7] = at 5.0 µM (retest, dose inferred, filed as 0.5)
[8] = at 50.0 µM (retest, dose inferred, filed as 5.0)

Measured: growth inhibition

CN(CCCl)CCCl.CN(CCCl)CCCl.[Cl][Pt+2][Cl]
inactive: [1]; [7] 40% | [2]; [7] 22% | [3]; [7] 25% | [4]; [7] 26% | [5]; [7] 6% | [6]; [7] 64%
active: [1]; [8] 97% | [1]; at 50.0 µM 88.8% | [2]; [8] 98% | [2]; at 50.0 µM 90.5% | [3]; [8] 98% | [3]; at 50.0 µM 85.8% | [4]; [8] 98% | [4]; at 50.0 µM 76.8% | [5]; [8] 96% | [5]; at 50.0 µM 80.2% | [6]; [8] 98% | [6]; at 50.0 µM 88.5%

CN(CCCl)CCCl.CN(CCCl)CCCl.[Cl][Cu][Cl]
inactive: [1]; at 50.0 µM 15.6% | [2]; at 50.0 µM -8.65% | [3]; at 50.0 µM -17.2% | [4]; at 50.0 µM 0.55% | [5]; at 50.0 µM 0% | [6]; at 50.0 µM 4.75%

CN(CCCl)CCCl
active: [1]; at 50.0 µM 90.7% | [2]; at 50.0 µM 90.5% | [3]; at 50.0 µM 93.2% | [4]; at 50.0 µM 90.9% | [5]; at 50.0 µM 90.4% | [6]; at 50.0 µM 91.1%
